In PMC4319893 (PLoS ONE, 2015):
Blank lines part the entries; values can stand above or below the binder they belong to.

Sequences of proteins named here, by UniProt entry; tags and fusion partners are left off. Residues count along the entry.
UniProt P78352, 61-724: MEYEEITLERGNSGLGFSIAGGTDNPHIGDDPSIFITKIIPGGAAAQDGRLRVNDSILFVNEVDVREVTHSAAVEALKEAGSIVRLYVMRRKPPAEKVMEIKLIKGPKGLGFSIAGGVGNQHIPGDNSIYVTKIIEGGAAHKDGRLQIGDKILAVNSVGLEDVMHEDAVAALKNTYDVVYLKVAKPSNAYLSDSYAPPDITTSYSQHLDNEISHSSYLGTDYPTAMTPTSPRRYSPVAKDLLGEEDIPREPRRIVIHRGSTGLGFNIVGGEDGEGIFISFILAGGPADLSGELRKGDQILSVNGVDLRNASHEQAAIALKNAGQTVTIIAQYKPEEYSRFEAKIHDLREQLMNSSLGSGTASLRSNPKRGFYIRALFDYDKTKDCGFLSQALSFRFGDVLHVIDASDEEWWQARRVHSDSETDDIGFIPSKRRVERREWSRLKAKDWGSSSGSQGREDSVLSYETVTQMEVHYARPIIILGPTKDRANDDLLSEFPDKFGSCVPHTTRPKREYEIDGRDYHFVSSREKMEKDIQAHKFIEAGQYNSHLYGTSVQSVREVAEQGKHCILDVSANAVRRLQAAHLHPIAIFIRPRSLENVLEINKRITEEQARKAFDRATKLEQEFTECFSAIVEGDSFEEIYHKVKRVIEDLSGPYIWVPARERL
UniProt P78352, 61-401: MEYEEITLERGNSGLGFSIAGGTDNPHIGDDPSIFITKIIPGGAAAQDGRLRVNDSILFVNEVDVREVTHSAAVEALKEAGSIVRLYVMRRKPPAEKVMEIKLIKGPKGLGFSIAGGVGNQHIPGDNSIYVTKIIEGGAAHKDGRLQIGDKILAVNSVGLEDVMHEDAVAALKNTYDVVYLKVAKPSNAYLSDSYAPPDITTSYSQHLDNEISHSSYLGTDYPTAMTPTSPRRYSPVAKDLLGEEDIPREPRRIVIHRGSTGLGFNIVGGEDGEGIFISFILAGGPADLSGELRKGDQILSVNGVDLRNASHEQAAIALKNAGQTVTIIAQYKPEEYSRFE
UniProt Q15700, 94-509: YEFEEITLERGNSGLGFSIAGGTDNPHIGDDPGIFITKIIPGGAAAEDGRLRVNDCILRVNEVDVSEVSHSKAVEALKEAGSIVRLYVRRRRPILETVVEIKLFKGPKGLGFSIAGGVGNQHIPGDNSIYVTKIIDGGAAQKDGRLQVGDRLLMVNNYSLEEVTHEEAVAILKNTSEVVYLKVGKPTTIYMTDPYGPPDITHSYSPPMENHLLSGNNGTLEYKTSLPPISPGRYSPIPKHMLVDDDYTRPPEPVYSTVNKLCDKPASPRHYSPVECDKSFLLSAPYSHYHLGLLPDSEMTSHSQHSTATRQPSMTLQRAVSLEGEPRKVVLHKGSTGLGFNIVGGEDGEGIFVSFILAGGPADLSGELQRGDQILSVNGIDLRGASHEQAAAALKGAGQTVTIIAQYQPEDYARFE
UniProt Q12959, 220-554: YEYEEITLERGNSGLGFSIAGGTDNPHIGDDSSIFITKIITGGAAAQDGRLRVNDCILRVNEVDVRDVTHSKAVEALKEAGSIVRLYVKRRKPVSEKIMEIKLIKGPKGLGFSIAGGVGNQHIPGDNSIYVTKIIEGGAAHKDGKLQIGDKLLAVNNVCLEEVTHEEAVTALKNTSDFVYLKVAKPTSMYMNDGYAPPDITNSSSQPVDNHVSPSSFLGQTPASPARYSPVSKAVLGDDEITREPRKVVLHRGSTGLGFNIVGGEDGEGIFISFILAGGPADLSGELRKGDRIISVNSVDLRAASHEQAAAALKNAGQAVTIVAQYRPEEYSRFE

Legend:
Settings in all cases: both partners purified
Full-length PSD-95 [1] = biological target: T1, Full-length PSD-95 (UniProt P78352 61-724); assay: fluorescence polarisation; competition, monomeric FP assay; probe not named for Table S1; 50 mM TRIS, 100 mM NaCl, 1 mM EDTA, 1 mM DTT; Ki from IC50
T1 construct: PSD-95, residues 61-end; also called PSD-95 FL; FL PSD-95; source: expressed from the pET32m3C expression vector by a previously reported protocol; donated by Mingjie Zhang

PSD-95 PDZ1-2-3 [2] = biological target: T2, PSD-95 PDZ1-2-3 (human, UniProt P78352 61-401); assay: fluorescence polarisation; competition against the monomeric CRIPT probe; 50 mM TRIS, 100 mM NaCl, 1 mM EDTA, 1 mM DTT; Ki calculated according to Nikolovska-Coleska et al.
T2 construct: human PSD-95, residues 61-401; Synthetic DNA in a modified pRSET vector; source: E. coli BL21(DE3)pLysS, purified (His-Trap IMAC, MonoQ ion exchange)

Full-length PSD-95 [3] = biological target: T1, Full-length PSD-95; assay: as above
PSD-93 PDZ1-2-3 [4] = biological target: T3, PSD-93 PDZ1-2-3 (human, UniProt Q15700 94-509); assay: as above
T3 construct: human PSD-93, residues 94-509; Synthetic DNA in a modified pRSET vector; source: E. coli BL21(DE3)pLysS, purified (His-Trap IMAC, MonoQ ion exchange)

SAP-102 PDZ1-2-3 [5] = biological target: T4, SAP-102 PDZ1-2-3 (human, UniProt Q92796 127-475); assay: as above
T4 construct: human SAP-102, residues 127-475; Synthetic DNA in a modified pRSET vector; source: E. coli BL21(DE3)pLysS, purified (His-Trap IMAC, MonoQ ion exchange)
T4 sequence (looked up): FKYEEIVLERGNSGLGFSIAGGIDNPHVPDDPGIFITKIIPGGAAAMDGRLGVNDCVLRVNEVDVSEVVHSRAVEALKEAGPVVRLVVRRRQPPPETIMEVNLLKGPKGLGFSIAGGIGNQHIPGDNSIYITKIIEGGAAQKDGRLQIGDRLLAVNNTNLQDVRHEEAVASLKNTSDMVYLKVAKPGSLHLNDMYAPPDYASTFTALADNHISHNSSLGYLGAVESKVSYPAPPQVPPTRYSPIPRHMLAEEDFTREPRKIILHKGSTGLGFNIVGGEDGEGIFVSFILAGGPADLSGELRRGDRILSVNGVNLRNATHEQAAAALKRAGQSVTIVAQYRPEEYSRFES

PSD-95 PDZ1-2-3 [6] = biological target: T2, PSD-95 PDZ1-2-3; assay: fluorescence polarisation; saturation binding of a monomeric fluorescent probe with varying protein; 50 mM TRIS, 100 mM NaCl, 1 mM EDTA, 1 mM DTT
PSD-93 PDZ1-2-3 [7] = biological target: T3, PSD-93 PDZ1-2-3; assay: as above
SAP-97 PDZ1-2-3 = biological target: T5, SAP-97 PDZ1-2-3 (human, UniProt Q12959 220-554); assay: as above
T5 construct: human SAP-97, residues 220-554; Synthetic DNA in a modified pRSET vector; source: E. coli BL21(DE3)pLysS, purified (His-Trap IMAC, MonoQ ion exchange)

SAP-102 PDZ1-2-3 [8] = biological target: T4, SAP-102 PDZ1-2-3; assay: as above

- Ki (Full-length PSD-95 [1]): 24 µM
B1: CRIPT-05 (peptide)
peptide: KQTSV
notes: C-terminal pentapeptide of CRIPT; source: synthetic peptide

- Ki (Full-length PSD-95 [1]): 1.5 µM
- Ki (PSD-95 PDZ1-2-3 [2]): 2700 nM
- Ki (Full-length PSD-95 [3]): 4.9 µM
- Ki (PSD-93 PDZ1-2-3 [4]): 930 nM
- Ki (SAP-102 PDZ1-2-3 [5]): 260 nM
B2: CRIPT-06 (1) (peptide)
peptide: YKQTSV
notes: C-terminal hexapeptide of CRIPT; also called CRIPT hexapeptide; YKQTSV; source: synthetic peptide

- Kd (PSD-95 PDZ1-2-3 [6]): 2100 nM
- Kd (PSD-93 PDZ1-2-3 [7]): 830 nM
- Kd (SAP-97 PDZ1-2-3): 1600 nM
- Kd (SAP-102 PDZ1-2-3 [8]): 590 nM
Binder: YKQTSV (fluorescent label, not named) [Monomeric CRIPT probe]

- Ki (Full-length PSD-95 [1]): 3.1 µM
B3: CRIPT-09 (peptide)
peptide: TKNYKQTSV
notes: C-terminal peptide of CRIPT; source: synthetic peptide

- Ki (Full-length PSD-95 [1]): 2.1 µM
B4: CRIPT-08 (peptide)
peptide: KNYKQTSV
notes: as for B3

- Ki (Full-length PSD-95 [1]): 3.7 µM
B5: CRIPT-07 (peptide)
peptide: NYKQTSV
notes: as for B3

- Ki (Full-length PSD-95 [1]): 4.6 µM
Binder: LDTKNYKQTSV (source: synthetic peptide) [CRIPT-11]
